Patent US5904915A, “Method of diagnosing pathological state of tumor cells using a diagnostic agent for glycometabolic function” (Nihon Medi-Physics Co., Ltd., priority 1996, dated 1999)

Key:
LS180 cells [1] = tested on: LS180 cells
Experimental: Then, cells were washed three times with a cold PBS, lysed with 50% ethanol and the lysate was assayed for metabolites.

LS180 cells [2] = tested on: LS180 cells; remark: listed apart in the source
Experimental: After carrying out an experiment according to Experiment 1, cells were stripped off from the plate using 100 μl of 50% ethanol and the solution was centrifuged at 15000 rpm. A 25 μl aliquot of supernatant was subjected to analysis of metabolites by thin-layer chromatography (TLC). The eluent was acetonitrile/water=95/5, and the carrier was silica gel 60. The plate after development was cut at 5 mm intervals and assayed for radioisotope with a gammer counter. Total radioactivity of respective metabolites were calculated from the ratio of metabolites obtained in TLC.

SMILES: OC[C@H]1OC(O)[C@H]([18F])[C@@H](O)[C@@H]1O (some centres unmarked) [FDG, 2-[F-18]fluorodeoxyglucose, reference compound]
- production of FDG-6P on doubling glucose concentration in medium (LS180 cells [1]): decreased
- rate of metabolism of FDG to FDG-6P (LS180 cells [2]): slow
